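Assay format: 96-well plates, 48-hour exposure. The concentration for 50% growth inhibition is given as GI50. The concentration for full growth arrest is given as TGI.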
Columns and labels:
Assay in all cases: growth of human tumour cells (NCI), 48 h
[1] = test system: HCC-2998 colon
[2] = test system: HCT-116 colon
[3] = test system: SK-MEL-28 melanoma
[4] = test system: SF-268 CNS
[5] = test system: NCI-H522 lung
[6] = test system: SF-295 CNS
[7] = test system: M14 melanoma
[8] = test system: MDA-MB-231 breast
[9] = test system: 786-0 renal
[10] = test system: OVCAR-8 ovarian
[11] = test system: K-562 leukemia
[12] = test system: HOP-62 NSCLC
[13] = test system: COLO 205 colon
[14] = test system: UO-31 renal
[15] = test system: HS 578T breast
[16] = test system: SNB-19 CNS
[17] = test system: OVCAR-3 ovarian
[18] = test system: CCRF-CEM leukemia
[19] = test system: HCT-15 colon
[20] = test system: SR leukemia
[21] = test system: SF-539 CNS
[22] = test system: IGROV1 ovarian
[23] = test system: OVCAR-4 ovarian
[24] = test system: MCF7 breast
[25] = test system: UACC-62 melanoma
[26] = test system: EKVX NSCLC
[27] = test system: SN12C renal
[28] = test system: SK-OV-3 ovarian
[29] = test system: SK-MEL-5 melanoma
[30] = test system: HOP-92 NSCLC
[31] = test system: MOLT-4 leukemia
[32] = test system: OVCAR-5 ovarian
[33] = test system: TK-10 renal
[34] = test system: T-47D breast
[35] = test system: NCI-H322M lung
[36] = test system: DU-145 prostate
[37] = test system: NCI-H226 lung
[38] = test system: PC-3 prostate
[39] = test system: NCI-H460 lung
[40] = test system: NCI/ADR-RES ovarian
[41] = test system: MALME-3M melanoma
[42] = test system: BT-549 breast
[43] = test system: LOX IMVI melanoma
[44] = test system: HT29 colon
[45] = test system: A549 NSCLC
[46] = test system: MDA-N
[47] = test system: U251 CNS
[48] = test system: HL-60(TB) leukemia
[49] = test system: RPMI-8226 leukemia
[50] = test system: MDA-MB-435
[51] = test system: CAKI-1 renal
[52] = test system: NCI-H23 lung
[53] = test system: SW-620 colon
[54] = test system: SNB-75 CNS
[55] = test system: UACC-257 melanoma
[56] = test system: RXF 393 renal
[57] = test system: KM12 colon
[58] = test system: ACHN renal
[59] = test system: SK-MEL-2 melanoma

CCC1(O[N+](=O)[O-])CN([N+](=O)[O-])C1
GI50 [1]: > 100 µM | TGI [1]: > 100 µM | GI50 [2]: > 100 µM | TGI [2]: > 100 µM | GI50 [3]: > 100 µM | TGI [3]: > 100 µM | GI50 [4]: > 100 µM | TGI [4]: > 100 µM | GI50 [5]: > 100 µM | TGI [5]: > 100 µM | GI50 [6]: > 100 µM | TGI [6]: > 100 µM | GI50 [7]: > 100 µM | TGI [7]: > 100 µM | GI50 [8]: > 100 µM | TGI [8]: > 100 µM | GI50 [9]: > 100 µM | TGI [9]: > 100 µM | GI50 [10]: > 100 µM | TGI [10]: > 100 µM | GI50 [11]: > 100 µM | TGI [11]: > 100 µM | GI50 [12]: > 100 µM | TGI [12]: > 100 µM | GI50 [13]: > 100 µM | TGI [13]: > 100 µM | GI50 [14]: > 100 µM | TGI [14]: > 100 µM | GI50 [15]: > 100 µM | TGI [15]: > 100 µM | GI50 [16]: > 100 µM | TGI [16]: > 100 µM | GI50 [17]: > 100 µM | TGI [17]: > 100 µM | GI50 [18]: > 100 µM | TGI [18]: > 100 µM | GI50 [19]: > 100 µM | TGI [19]: > 100 µM | GI50 [20]: 69.3 µM | TGI [20]: > 100 µM | GI50 [21]: > 100 µM | TGI [21]: > 100 µM | GI50 [22]: > 100 µM | TGI [22]: > 100 µM | GI50 [23]: > 100 µM | TGI [23]: > 100 µM | GI50 [24]: > 100 µM | TGI [24]: > 100 µM | GI50 [25]: > 100 µM | TGI [25]: > 100 µM | GI50 [26]: > 100 µM | TGI [26]: > 100 µM | GI50 [27]: > 100 µM | TGI [27]: > 100 µM | GI50 [28]: > 100 µM | TGI [28]: > 100 µM | GI50 [29]: > 100 µM | TGI [29]: > 100 µM | GI50 [30]: > 100 µM | TGI [30]: > 100 µM | GI50 [31]: > 100 µM | TGI [31]: > 100 µM | GI50 [32]: > 100 µM | TGI [32]: > 100 µM | GI50 [33]: > 100 µM | TGI [33]: > 100 µM | GI50 [34]: > 100 µM | TGI [34]: > 100 µM | GI50 [35]: > 100 µM | TGI [35]: > 100 µM | GI50 [36]: > 100 µM | TGI [36]: > 100 µM | GI50 [37]: > 100 µM | TGI [37]: > 100 µM | GI50 [38]: > 100 µM | TGI [38]: > 100 µM | GI50 [39]: > 100 µM | TGI [39]: > 100 µM | GI50 [40]: > 100 µM | TGI [40]: > 100 µM | GI50 [41]: > 100 µM | TGI [41]: > 100 µM | GI50 [42]: > 100 µM | TGI [42]: > 100 µM | GI50 [43]: > 100 µM | TGI [43]: > 100 µM | GI50 [44]: > 100 µM | TGI [44]: > 100 µM | GI50 [45]: > 100 µM | TGI [45]: > 100 µM | GI50 [46]: > 100 µM | TGI [46]: > 100 µM | GI50 [47]: > 100 µM | TGI [47]: > 100 µM | GI50 [48]: > 100 µM | TGI [48]: > 100 µM | GI50 [49]: > 100 µM | TGI [49]: > 100 µM | GI50 [50]: > 100 µM | TGI [50]: > 100 µM | GI50 [51]: > 100 µM | TGI [51]: > 100 µM | GI50 [52]: > 100 µM | TGI [52]: > 100 µM | GI50 [53]: > 100 µM | TGI [53]: > 100 µM | GI50 [54]: 68.1 µM | TGI [54]: > 100 µM | GI50 [55]: > 100 µM | TGI [55]: > 100 µM | GI50 [56]: > 100 µM | TGI [56]: > 100 µM | GI50 [57]: > 100 µM | TGI [57]: > 100 µM | GI50 [58]: > 100 µM | TGI [58]: > 100 µM | GI50 [59]: > 100 µM | TGI [59]: > 100 µM
